Source: ChEMBL document CHEMBL5154699 (Eur J Med Chem, 2022)

Amino acid sequences for entries named in this document (tags omitted).
UniProt P33533, whole entry: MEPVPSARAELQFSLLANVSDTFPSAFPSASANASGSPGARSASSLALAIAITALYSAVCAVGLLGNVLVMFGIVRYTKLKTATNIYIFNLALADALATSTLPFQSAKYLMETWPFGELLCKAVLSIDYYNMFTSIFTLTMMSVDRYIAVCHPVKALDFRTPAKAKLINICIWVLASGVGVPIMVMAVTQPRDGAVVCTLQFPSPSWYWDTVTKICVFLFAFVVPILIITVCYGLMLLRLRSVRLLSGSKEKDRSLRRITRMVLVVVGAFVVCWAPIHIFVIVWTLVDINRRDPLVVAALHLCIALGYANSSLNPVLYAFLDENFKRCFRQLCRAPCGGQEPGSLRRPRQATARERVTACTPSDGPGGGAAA
UniProt P97266, whole entry: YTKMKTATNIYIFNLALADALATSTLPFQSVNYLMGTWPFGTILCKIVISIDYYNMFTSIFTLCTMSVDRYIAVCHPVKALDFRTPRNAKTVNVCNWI

Assays:
[1] = molecular target: Delta-type opioid receptor (Rattus norvegicus) (UniProt P33533); assay: Displacement of [3H]-DPDPE from DOR in rat brain membranes at 1 uM measured by competitive radioligand receptor binding assay relative to control; conditions: Membrane
[2] = molecular target: Mu-type opioid receptor (Cavia porcellus) (UniProt P97266); assay: Displacement of [3H]-DAMGO from MOR in guinea pig brain membranes at 1 uM measured by competitive radioligand receptor binding assay relative to control; conditions: Membrane

Row | Structure (SMILES) | Activity [1] | Activity [2]
1 | O=C(Cc1ccc(Cl)c(Cl)c1)N1CC[C@H]2CC[C@@H](N3CCCC3)[C@@H]1C2 | 0% | 7%
2 | CN(C)[C@@H]1CCC2CCN(C(=O)Cc3ccc(Cl)c(Cl)c3)C1C2 (mixture of isomers) |  | 0%
3 | O=C(Cc1ccc(Cl)c(Cl)c1)N1CC[C@@H]2CC[C@H](N3CCCC3)[C@H]1C2 | 0% | 0%
